Measured values taken from US9345677B2, “Compositions, methods and kits relating to HER-2 cleavage” (Incyte Corporation, priority 2003, dated 2016).

Key:
MMP2 = target: T1, MMP2 (Homo sapiens, UniProt P08253); assay: MMP2 fluorogenic peptide biochemical assay
T1 construct: purchased R&D Systems 902-MP
T1 sequence (P08253 110-660): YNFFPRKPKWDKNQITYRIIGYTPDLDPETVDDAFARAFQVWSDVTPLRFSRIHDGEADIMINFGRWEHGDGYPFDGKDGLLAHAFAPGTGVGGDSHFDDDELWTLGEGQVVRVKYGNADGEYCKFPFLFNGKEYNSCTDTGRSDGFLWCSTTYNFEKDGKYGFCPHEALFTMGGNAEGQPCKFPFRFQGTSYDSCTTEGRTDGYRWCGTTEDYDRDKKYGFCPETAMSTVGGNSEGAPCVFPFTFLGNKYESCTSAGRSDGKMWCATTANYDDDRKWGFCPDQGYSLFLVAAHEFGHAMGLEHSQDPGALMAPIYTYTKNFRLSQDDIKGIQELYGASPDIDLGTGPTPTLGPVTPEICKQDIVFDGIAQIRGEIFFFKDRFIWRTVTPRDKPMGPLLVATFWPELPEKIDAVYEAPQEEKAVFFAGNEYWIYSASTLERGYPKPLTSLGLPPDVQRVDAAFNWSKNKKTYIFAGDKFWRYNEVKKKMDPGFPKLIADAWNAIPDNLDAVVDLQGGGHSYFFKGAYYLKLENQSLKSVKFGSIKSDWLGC
Description: Source of enzymes for biochemical assays: Except for ADAM17 and MT1-MMP, all recombinant human MMPs and ADAMs were obtained from R&D Systems (Minneapolis, Minn.). Their catalog numbers are as following: MMP1 (901-MP), MMP2 (902-MP), MMP3 (513-MP), MMP7 (907-MP), MMP8 (908-MP), MMP9 (911-MP), MMP10 (910-MP), MMP12 (919-MP), MMP13 (511-MM), ADAM9 (939-AD), and ADAM10 (936-AD). MT1-MMP was obtained from US Biological (Swampscott, Mass.) with a catalog number of M2429. Porcine ADAM17 was purified in house from porcine spleen.
Substrates for biochemical assays: Fluorogenic Peptide substrate, (7-methoxycoumarin-4-yl)acetyl-Pro-Leu-Gly-Leu-(3-[2,4-dinitrophenyl]-L-2,3-diaminopropionyl)-Ala-Arg-NH2 (SEQ ID NO: 46), was obtained from R&D Systems (Minneapolis, Minn.) with a catalog number of ES001. It was used as substrate for MMP1, MMP2, MMP7, MMP8, MMP9, MMP12, MMP13, and MT1-MMP. Fluorogenic Peptide substrate, (7-methoxycoumarin-4-yl)acetyl-Arg-Pro-Lys-Pro-Val-Glu-Nva-Trp-Arg-Lys(2,4-dinitrophenyl)-NH2 (SEQ ID NO: 47), was obtained from R&D Systems with a catalog number of ES002. It was used as substrate for MMP3 and MMP10. […]
In general, 5 mM compound stock was prepared in DMSO. […] The plate was read on a plate reader with excitation of 320 nm and emission of 405 nm. Percentage of inhibition was calculated for each concentration and IC50 value was generated from curve fitting. […]

[1] = system: AKT and ERK phosphorylation in MCF7 cells; assay: Western blot of phospho-ERK and phospho-AKT; format: cell-based, human; conditions: Her-2 non-overexpressing MCF7 cells
BT474 cells = assay: Cell proliferation assay (cell counting, BrdU incorporation); format: cell-based, human
Description: (§1) Proliferation assays were routinely performed with two protocols: cell counting and BrdU incorporation assay. For cell counting, cells (1×10^5) were seeded in each well of 12 well plates and cultured overnight. Then, cells were treated for 6 days with drugs and compounds as indicated in individual experiments. Culture media were replaced with fresh media containing the same concentrations of drugs and compounds after the first 3 days of treatment. Viable cells were counted with hemacytometers immediately after trypan blue staining.
(§2) The BrdU incorporation assay was performed using a colorimetric Cell Proliferation ELISA kit per manufacturer's instruction (#1647229, Roche Molecular Biochemicals), measuring DNA synthesis in proliferating cells. Briefly, cells (5−10×10^3) were seeded in each well of 96 well plates and cultured overnight. […] Finally, 100 μl/well of substrate solution was added and the results were obtained using a microplate reader (Spectra Max PLUS, Molecular Devices) during color development. Multiple readings at various time points were obtained and results in the linear range of the assay were obtained. […]
After varying periods of cell culture (2-6 days), the cell cultures were harvested and cell growth was assessed by cell count and BRdU incorporation using standard protocols.

Her-2 cleavage = conditions: literature reports; cited from earlier work
MCF7 cells = assay: Cell proliferation assay (cell counting, BrdU incorporation); format: cell-based, human; conditions: single agent or combination of Herceptin and active sheddase inhibitor
Description: as §1
as §2, with “overnight. The next day, culture media were replaced with fresh media containing drugs and compounds as indicated for individual experiments.” for “overnight.”

[2] = system: Her-2 cleavage in BT-474 cells; assay: Western blot of Her-2 ECD (105 kDa) in culture supernatants; format: cell-based, human; conditions: suboptimal doses
[3] = system: AKT and ERK phosphorylation in BT474 cells; assay: Western blot of phospho-ERK and phospho-AKT; format: cell-based, human; conditions: sheddase inhibitor less than 5 μM alone or 0.2 μg/ml Herceptin alone
Description: In experiments to determine the effects of MPI treatment on cell signaling, BT474 cells were plated at 1×10^5 cells/mL in 2 mL of media (RPMI+10% FCS+10 μg/mL insulin) in 12-well plates. […] After 5 days, the cells were harvested, lysed in 200 μL ice-cold lysis buffer containing 10 mM Tris, pH 7.2, 150 mM NaCl, 1% Triton X-100, 1% deoxycholic acid, 0.1% SDS, 50 μg/mL leupeptin, 50 μg/mL aprotinin, 1 mM sodium vanadate, 50 mM sodium fluoride, 1 mM PMSF. After 10 minutes on ice, the samples were microfuged at 13,000 rpm for 10 minutes at 4° C. and the supernatants collected. For analysis, 15 μL of 2× Laemmli sample buffer (BioRad, cat#161-0737) was added to 15 μL of extract, samples boiled for 5 minutes and loaded onto 12-well 12% Tris-Glycine gels (Novex, cat# EC60052). Gels were run in 1× Tris-Glycine-SDS buffer (Gibco BRL) using Novex minigel apparatus for approximately 1.5 hours. Following electrophoresis, proteins were transferred onto PVDF membrane (NEN, cat#NEF1000) in 1× Tris-Glycine buffer (Biorad, cat#161-0734) containing 20% MeOH for 2-3 hours using BioRad miniblot transfer system. After transfer, membranes were blocked in PBS+5% milk+0.1% Tween-20 for 1 h at RT. […]
Phosphorylation of AKT and the MAP kinase ERK were monitored by western blot analysis using phospho-specific antibodies.

| Molecule | IC50 (MMP2) [nM] | AKT and MAP kinase pathways [1] | effect on BT474 cell growth (BT474 cells; 0.2 μg/ml) | maximal growth inhibition (BT474 cells; BT474 cells, concentrations above 1 μg/ml) | cleavage of Her-2 (p185) to p95 and ECD (Her-2 cleavage) | growth of MCF7 cells (MCF7 cells) | prevention of Her-2 cleavage in vitro [2] | AKT or ERK phosphorylation, single agent [3] |
| --- | --- | --- | --- | --- | --- | --- | --- | --- |
| CN1CC2(CC2)C[C@H](C(=O)NO)[C@H]1C(=O)N1CCN(c2ccc(C(F)(F)F)cn2)CC1 [Compound 6] | 0.65 | – | – | – | – | – | – | – |
| Herceptin: anti-Her-2 monoclonal antibody; humanized antibody that binds Her-2 directly [reference compound] | – | not impacted | without significant effect | approximately 50% | inhibit enzymatic cleavage | not significantly impacted | does not occur | did not demonstrate a detectable effect |
